{"sequences": {"note": "Amino acid sequences for entries named in this document (tags omitted). Chains listed by the source or under a name are the forms on record and can include a tag or linker.", "UniProt P35236, other isoform, or with tags, fused parts or gaps": "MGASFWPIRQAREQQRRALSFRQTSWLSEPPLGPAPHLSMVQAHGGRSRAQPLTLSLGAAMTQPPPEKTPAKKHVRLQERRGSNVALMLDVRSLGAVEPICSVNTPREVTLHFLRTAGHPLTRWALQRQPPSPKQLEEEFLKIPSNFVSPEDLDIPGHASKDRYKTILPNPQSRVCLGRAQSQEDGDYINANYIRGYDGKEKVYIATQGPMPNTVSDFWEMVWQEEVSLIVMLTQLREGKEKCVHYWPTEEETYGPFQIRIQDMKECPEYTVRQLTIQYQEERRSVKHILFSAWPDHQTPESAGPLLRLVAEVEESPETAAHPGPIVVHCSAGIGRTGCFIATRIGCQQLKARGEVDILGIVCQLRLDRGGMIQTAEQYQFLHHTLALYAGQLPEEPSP"}, "source": "patent US8987474B2", "about": "(University of South Florida, priority 2006, dated 2015)", "target": "HePTP (Homo sapiens (Human), UniProt P35236)", "assay": "biochemical", "from_the_text": "All constructs were verified by DNA sequencing.\nRecombinant DEP1 was from Abcam.", "data": [{"smiles": "O=S(=O)(O)c1ccc2cc(/N=N\\c3cc(S(=O)(=O)O)c4cccnc4c3O)ccc2c1", "note": "[NSC-87877, 8-hydroxy-7-(6-sulfonaphthalen-2-yl)diazenyl-quinoline-5-sulfonic acid]", "values": [{"measurement": "IC50", "result": "7.74 ± 1.56", "unit": "µM"}]}]}
